These results are taken from patent US20040166111A1 (published 2004).

Sequences of proteins named here, by UniProt entry; tags and fusion partners are left off. Residues count along the entry.
UniProt P01375, 77-233 limits assumed: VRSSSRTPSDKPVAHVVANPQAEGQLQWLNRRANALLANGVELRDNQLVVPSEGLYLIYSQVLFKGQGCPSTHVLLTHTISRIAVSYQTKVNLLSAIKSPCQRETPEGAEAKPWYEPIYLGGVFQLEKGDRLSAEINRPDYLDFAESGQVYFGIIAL

Assay [1] deals with T1, human TNFα (human, UniProt P01375 77-233).
T1 construct: also called huTNF; hTNFα
The experiment in a line: SPR, BIAcore 3000 kinetics. On the technique in general: In SPR one partner is held on a chip, and binding of the other changes the refractive index at the surface.

The target of assay [2] is T1, human TNFα. Kind of assay: SPR, BIAcore 3000; agent captured by goat anti-human Fc, huTNF as analyte.

The term Kd denotes a measure of binding affinity in units of concentration. A high value points to lower affinity. As usually defined, the koff is a measure of how fast the partners let go of each other. A word on the kon: it is a measure of how fast the partners come together. A high value points to faster complex formation.

B1: Infliximab (Remicade) (antibody, V domains shown)
VH: EVKLEESGGGLVQPGGSMKLSCVASGFIFSNHWMNWVRQSPEKGLEWVAEIRSKSINSATHYAESVKGRFTISRDDSKSAVYLQMTDLRTEDTGVYYCSRNYYGSTYDYWGQGTTLTVSS
VL: DILLTQSPAILSVSPGERVSFSCRASQFVGSSIHWYQQRTNGSPRLLIKYASESMSGIPSRFSGSGSGTDFTLSINTVESEDIADYYCQQSHSWPFTFGSGTNLEVKR
Turning to B1, the half-life of complex in the assay with human TNFα [1] amounted to 3.07 h. In the assay with human TNFα [2], this molecule returned a dissociation constant (Kd) of 0.0945 nM, a koff of 6.29e-05 s⁻¹ and a kon of 671000 M⁻¹ s⁻¹.
